For 19 compounds, growth inhibition results are on record in PubChem BioAssay (NCI).

Assay [1] is described as follows: NCI Yeast Anticancer Drug Screen. Data for the rad50 strain (AID 155).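 Further: 0% = growth of vehicle-only cultures of the same strain.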 The following applies: S. cerevisiae rad50 strain growth inhibition; at 50.0 µM; active compounds read high.
Assay [2] is described as follows: NCI Yeast Anticancer Drug Screen. Data for the mec2-1 strain (AID 157). To be noted: S. cerevisiae mec2-1 strain, at 50.0 µM, active compounds read high.
Assay [3] in a line: NCI Yeast Anticancer Drug Screen. Data for the sgs1 mgt1 strain (AID 161).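 Further: 0% = growth of cultures given vehicle only.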 To be noted: S. cerevisiae sgs1 mgt1 strain, at 50.0 µM, active compounds read high.
Assay [4] can be described thus: NCI Yeast Anticancer Drug Screen. Data for the cln2 rad14 strain (AID 165).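 Further: 0% = growth equal to vehicle treated cultures.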 To be noted: S. cerevisiae cln2 rad14 strain, at 50.0 µM, active compounds read high.
Assay [5] is described as follows: NCI Yeast Anticancer Drug Screen. Data for the bub3 strain (AID 167). The following applies: S. cerevisiae bub3 mutant strain, at 50.0 µM, active compounds read high.
Assay [6] can be described thus: NCI Yeast Anticancer Drug Screen. Data for the mlh1 rad18 strain (AID 175). The following applies: S. cerevisiae mlh1 rad18 strain growth inhibition; at 50.0 µM; active compounds read high.

Only a part is listed here, and it is no random draw. Activity calls are given as the source filed them. No stated cut-off is given here; in the data, active means growth inhibition above about 70%; inactive means the rest.

With `COc1ccc(CN2CCCN(Cc3ccc(OC)cc3)P2(=O)Cl)cc1`, the growth inhibition in assay [1] is inactive: 7.2%; in assay [2], inactive: 11.1%; in assay [3], inactive: 22.2%; in assay [4], inactive: 1.35%; in assay [5] it was inactive: -12.6%; in assay [6] it was inactive: 28.2%.
For `COc1cccc([N+](=O)[O-])c1[N+](=O)[O-]`, the growth inhibition in assay [1] is inactive: 21.8%; in assay [2], inactive: -28.6%; in assay [3], inactive: -11.2%; in assay [4], inactive: -2.65%; in assay [5] it was inactive: 4.05%; in assay [6] it was inactive: 17.2%.
For the compound `O=C(CC[N+](=O)[O-])OCC1OC(OC(=O)CC[N+](=O)[O-])C(OC(=O)CC[N+](=O)[O-])C(O)C1O` (centres undefined), the growth inhibition in assay [1] is inactive: 2.85%; in assay [2], inactive: -15.5%; in assay [3], inactive: -1.35%; in assay [4] it was inactive: -0.3%; in assay [5] it was inactive: -10.2%; in assay [6] it was inactive: -1.5%.
As for `O=P(Cl)(Oc1ccccc1)c1ccccc1` (centres undefined), the growth inhibition in assay [1] is inactive: 25.1%; in assay [2], inactive: 7.35%; in assay [3], inactive: 4.2%; in assay [4], inactive: 9.15%; in assay [5] it was inactive: 14.3%; in assay [6], inactive: 0.9%.
`FC1(F)SC(Cl)C(Cl)(Cl)C1(F)F` (centres undefined): the growth inhibition is inactive: 7.95% in assay [1]; inactive: 10.9% in assay [2]; inactive: 16.6% in assay [3]; inactive: -12.9% in assay [4]; inactive: 5.75% in assay [5]; inactive: 24.2% in assay [6].
For the compound `ClCCN(Cc1ccccc1)Cc1cccs1`, the growth inhibition in assay [1] is inactive: 3.2%; in assay [2], inactive: 12.6%; in assay [3], inactive: 13.9%; in assay [4] it was inactive: -22.6%; in assay [5], inactive: -13.9%; in assay [6] it was inactive: 12.6%.
Consider `CC(C)[C@@H]1[C@H](C)[N+]1(C)C`, for which the growth inhibition in assay [1] was inactive: 7.1%; in assay [2] it was inactive: -9.8%; in assay [3], inactive: 14.8%; in assay [4], inactive: -34.5%; in assay [5], inactive: 0%; in assay [6], inactive: 13.4%.
On to `CN(CCCl)CCCn1ccnc1[N+](=O)[O-]`, for which the growth inhibition in assay [1] was inactive: 5.85%; in assay [2], inactive: -28.3%; in assay [3], inactive: 9.9%; in assay [4], inactive: 0.35%; in assay [5], inactive: 1.65%; in assay [6], inactive: -8.4%.
For the compound `O=C(CBr)c1ccc([N+](=O)[O-])cc1`, the growth inhibition was inactive: -11.2% in assay [1]; inactive: 6.9% in assay [2]; inactive: 3.15% in assay [3]; inactive: -18.4% in assay [4]; inactive: -16.1% in assay [5]; inactive: -4.7% in assay [6].
In the case of `C[C@@H]1[C@@H](C)[N+]1(C)C`, the growth inhibition was inactive: 5.05% in assay [1]; inactive: 4.6% in assay [2]; inactive: 12% in assay [3]; inactive: 0.95% in assay [4]; inactive: 0.35% in assay [5]; inactive: 4.05% in assay [6].
As to `O=C(OCc1ccc([N+](=O)[O-])cc1)N(CCCl)CCCl`, the growth inhibition in assay [1] was inactive: 13.2%; in assay [2], inactive: -14.2%; in assay [3], inactive: 24.3%; in assay [4], inactive: 27.4%; in assay [5], inactive: 37.7%; in assay [6], inactive: 5.85%.
On to `O=P1(Cl)OC(c2ccccc2)=CCN1CCCl` (centres undefined), for which the growth inhibition in assay [1] is inactive: -6.85%; in assay [2], inactive: 0.45%; in assay [3] it was inactive: 1.25%; in assay [4] it was inactive: -31.4%; in assay [5] it was inactive: -6.9%; in assay [6], inactive: 8.65%.
As to `O=C(O)C(O)c1ccc([As](=O)(O)O)cc1` (centres undefined), the growth inhibition was inactive: -14.9% in assay [1]; inactive: -20.8% in assay [2]; inactive: -32.7% in assay [3]; inactive: -36.2% in assay [4]; inactive: -44% in assay [5]; inactive: 7.5% in assay [6].
On to `ClCCN(C1CCCCC1)C1CCCCC1`, for which the growth inhibition in assay [1] was inactive: -8.1%; in assay [2], inactive: -6.65%; in assay [3] it was inactive: 11.4%; in assay [4], inactive: -11.8%; in assay [5] it was inactive: -11.8%; in assay [6], inactive: -5.75%.
Consider `O=C1C2CCCCC1C(N1CCCC1)CC2` (centres undefined), for which the growth inhibition in assay [1] was inactive: 58.8%; in assay [2], inactive: 6.75%; in assay [3], inactive: 39.1%; in assay [4] it was inactive: -4.35%; in assay [5], inactive: 10.1%; in assay [6], inactive: 34.3%.
`CC1CC[P+](c2ccccc2)(c2ccccc2)c2c1ccc1ccccc21` (centres undefined): the growth inhibition in assay [1] was active: 99%; in assay [2], active: 99.4%; in assay [3], active: 99.2%; in assay [4], active: 96.8%; in assay [5] it was active: 98.2%; in assay [6] it was active: 99.2%.
As to `O=[N+]([O-])c1cccc(S(=O)(=O)N(CCCl)CCCl)c1`, the growth inhibition is inactive: -20.4% in assay [1]; inactive: -7.8% in assay [2]; inactive: 4.65% in assay [3]; inactive: -21% in assay [4]; inactive: 28.5% in assay [5]; inactive: 11.4% in assay [6].
In the case of `CC(C)N[N+](=O)[O-]`, the growth inhibition in assay [1] is inactive: -9.1%; in assay [2], inactive: -7.85%; in assay [3] it was inactive: -2.1%; in assay [4], inactive: 7.1%; in assay [5], inactive: -9.25%; in assay [6] it was inactive: -2%.
With `CCN(CCCl)CCOc1ccc([N+](=O)[O-])cc1`, the growth inhibition in assay [1] was inactive: 4.95%; in assay [2], inactive: 6.35%; in assay [3], inactive: 9.7%; in assay [4], inactive: 2.4%; in assay [5] it was inactive: 6.4%; in assay [6] it was inactive: 14.8%.
